Reference: ChEMBL document CHEMBL4373720, “Discovery of Conformationally Restricted Human Glutaminyl Cyclase Inhibitors as Potent Anti-Alzheimer's Agents by Structure-Based Design” (J Med Chem, 2019)

Chains of the proteins cited; added tags and fusions are not shown. Residues count along the entry.
UniProt Q12809, whole entry: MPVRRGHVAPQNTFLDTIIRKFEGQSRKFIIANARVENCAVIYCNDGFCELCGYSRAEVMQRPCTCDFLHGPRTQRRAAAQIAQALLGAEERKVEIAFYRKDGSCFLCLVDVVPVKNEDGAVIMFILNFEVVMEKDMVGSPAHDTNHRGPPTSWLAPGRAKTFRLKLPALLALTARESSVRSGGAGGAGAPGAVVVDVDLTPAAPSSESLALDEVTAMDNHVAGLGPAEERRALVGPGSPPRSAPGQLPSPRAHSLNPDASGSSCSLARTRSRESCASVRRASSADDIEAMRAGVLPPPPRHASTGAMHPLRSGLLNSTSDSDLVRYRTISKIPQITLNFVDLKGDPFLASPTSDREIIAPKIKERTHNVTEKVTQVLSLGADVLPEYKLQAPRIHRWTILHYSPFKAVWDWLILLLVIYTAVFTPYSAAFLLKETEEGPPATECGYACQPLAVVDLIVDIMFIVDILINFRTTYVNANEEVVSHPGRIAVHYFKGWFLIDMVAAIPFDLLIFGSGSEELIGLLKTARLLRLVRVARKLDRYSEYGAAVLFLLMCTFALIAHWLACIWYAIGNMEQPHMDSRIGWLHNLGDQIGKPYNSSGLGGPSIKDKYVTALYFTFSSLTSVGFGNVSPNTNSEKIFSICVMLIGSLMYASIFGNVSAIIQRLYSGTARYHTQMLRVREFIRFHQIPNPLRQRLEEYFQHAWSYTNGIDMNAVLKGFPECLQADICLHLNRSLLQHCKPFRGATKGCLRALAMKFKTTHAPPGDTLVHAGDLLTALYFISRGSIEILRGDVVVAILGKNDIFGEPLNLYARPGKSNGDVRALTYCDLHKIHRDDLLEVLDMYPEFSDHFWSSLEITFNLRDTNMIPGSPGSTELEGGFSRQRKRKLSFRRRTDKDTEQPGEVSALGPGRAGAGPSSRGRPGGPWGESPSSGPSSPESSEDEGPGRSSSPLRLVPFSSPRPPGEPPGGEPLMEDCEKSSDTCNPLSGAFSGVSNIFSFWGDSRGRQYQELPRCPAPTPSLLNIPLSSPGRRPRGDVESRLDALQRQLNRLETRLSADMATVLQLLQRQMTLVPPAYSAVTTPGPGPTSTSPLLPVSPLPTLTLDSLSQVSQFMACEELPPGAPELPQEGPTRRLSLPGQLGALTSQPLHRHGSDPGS
UniProt Q9CYK2, 36-362 limits assumed: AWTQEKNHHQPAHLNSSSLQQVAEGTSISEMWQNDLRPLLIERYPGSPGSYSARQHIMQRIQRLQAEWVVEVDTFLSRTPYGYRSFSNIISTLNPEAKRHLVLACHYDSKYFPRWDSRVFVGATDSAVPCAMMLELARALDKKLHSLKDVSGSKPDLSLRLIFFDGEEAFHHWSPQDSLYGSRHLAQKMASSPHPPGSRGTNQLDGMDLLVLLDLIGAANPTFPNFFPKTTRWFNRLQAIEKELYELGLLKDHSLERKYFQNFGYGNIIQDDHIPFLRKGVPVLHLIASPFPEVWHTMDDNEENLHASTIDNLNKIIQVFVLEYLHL

Assays:
[1] = biological target: Voltage-gated inwardly rectifying potassium channel KCNH2 (Homo sapiens, UniProt Q12809); test: Displacement of tracer red from human ERG at 10 uM by fluorescence polarization assay relative to control
HT-22 = test: Cytotoxicity against mouse HT22 cells assessed as cell viability at 10 uM measured after 18 hrs by MTT assay relative to control; format: cell-based; details: ht-22, 18 h
Mus musculus [2] = test: Antialzheimer activity in 5XFAD transgenic ICR mouse assessed as reduction in amyloid beta N3pE-42 level in brain at 25 mg/kg, ip administered daily for 4 weeks measured post-last dose by sandwich ELISA relative to control; design: scale not given: the % may be the effect or the level left
[3] = Stability in mouse liver microsomes assessed as parent compound remaining measured after 30 mins; format: ADME, Microsome; details: 0.5 h
Mus musculus [4] = test: Antialzheimer activity in 5XFAD transgenic ICR mouse assessed as reduction in amyloid beta-40 level in brain at 25 mg/kg, ip administered daily for 4 weeks measured post-last dose by sandwich ELISA relative to control; design: scale not given: the % may be the effect or the level left
[5] = Stability in human liver microsomes assessed as parent compound remaining measured after 30 mins; format: ADME, Microsome; details: 0.5 h
Mus musculus [6] = test: Neuroprotection in human amyloid beta (3 to 40 residues)-induced ICR mouse model of Alzheimer's disease assessed as inhibition of human amyloid beta N3pE-40 level in brain at 25 mg/kg, ip measured after 24 hrs by sandwich ELISA relative to control; format: functional
[7] = Toxicity in 5XFAD transgenic ICR mouse at 25 mg/kg, ip administered daily for 4 weeks; details: in vivo, 672 h
Mus musculus [8] = test: Antialzheimer activity in 5XFAD transgenic ICR mouse assessed as reduction in amyloid beta-42 level in brain at 25 mg/kg, ip administered daily for 4 weeks measured post-last dose by sandwich ELISA relative to control; design: scale not given: the % may be the effect or the level left
[9] = biological target: Glutaminyl-peptide cyclotransferase (Mus musculus, UniProt Q9CYK2); test: Inhibition of mouse glutaminyl cyclase
Mus musculus [10] = test: Antialzheimer activity in 5XFAD transgenic ICR mouse assessed as reduction in amyloid beta N3pE-40 level in brain at 25 mg/kg, ip administered daily for 4 weeks measured post-last dose by sandwich ELISA relative to control; design: scale not given: the % may be the effect or the level left

Row | SMILES | inhibition (INH) [1] | Activity (HT-22) | Activity (Mus musculus [2]) | Stability [3] | Activity (Mus musculus [4]) | Stability [5] | inhibition (INH) (Mus musculus [6]) | Activity [7] | Activity (Mus musculus [8]) | IC50 [9] | Activity (Mus musculus [10])
1 | COc1ccc(N(C(=O)NCCCn2cncc2C)C2CCNCC2)cc1OC | 26.3% | 88.3% |  |  |  |  |  |  |  |  | 
2 | COc1ccc(N(C(=O)NCCCn2cncc2C)C2CCN(Cc3ccccc3)CC2)cc1OC | 73.5% | 92.4% |  |  |  |  |  |  |  |  | 
3 | COc1ccc(N(C(=O)NCCCn2cncc2C)C2CCN(C)CC2)cc1OC | 46.1% | 100% | 50.5% | 89% | 36.6% | 100% | 26.1% | Non-Toxic | 35.1% | 28.4 nM | 57.9%

Some compounds may have been tested in ways that are not shown here.
